Assay: Particle size distribution by dynamic light scattering (Zetasizer3000)

Question: For “Poly(ethylene oxide)-block-poly(caprolactone) [PEG2000-PCL2000]”, which stability upon heating is on record?
Answer: higher stability
